In this assay the target is Serine/threonine-protein kinase pim-1 (Homo sapiens, UniProt P11309). Briefly: Inhibition of PIM-1 (unknown origin).

Chains of the proteins cited; added tags and fusions are not shown.
UniProt P11309, whole entry: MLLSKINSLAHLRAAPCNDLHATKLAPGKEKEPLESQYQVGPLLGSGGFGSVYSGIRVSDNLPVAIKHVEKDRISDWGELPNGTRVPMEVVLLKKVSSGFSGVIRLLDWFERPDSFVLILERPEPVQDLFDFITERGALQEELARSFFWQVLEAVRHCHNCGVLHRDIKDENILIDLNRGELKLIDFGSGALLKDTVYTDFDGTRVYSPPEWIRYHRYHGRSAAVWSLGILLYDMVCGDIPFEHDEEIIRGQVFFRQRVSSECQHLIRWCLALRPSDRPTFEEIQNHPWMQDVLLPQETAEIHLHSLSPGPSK

The structures appear in SMILES notation.

As a reminder, the IC50 is the concentration that inhibits the measured activity by half. A higher IC50 goes with lower potency. `O=c1c(O)c(-c2ccc(O)c(O)c2)oc2cc(O)c(O)c(O)c12` [QUERCETAGETIN] showed an IC50 of 320 µM.

These data come from ChEMBL document CHEMBL5385896, “Discovery of PIM-1 kinase inhibitors based on the 2,5-disubstituted 1,3,4-oxadiazole scaffold against prostate cancer: Design, synthesis, in vitro and in vivo cytotoxicity investigation” (Eur J Med Chem, 2023).
